# Target: human Nurr1 (Homo sapiens, UniProt P43354)
# Sequences of proteins named here, by UniProt entry; tags and fusion partners are left off. Residues count along the entry.
# UniProt P43354, 360-595 limits assumed: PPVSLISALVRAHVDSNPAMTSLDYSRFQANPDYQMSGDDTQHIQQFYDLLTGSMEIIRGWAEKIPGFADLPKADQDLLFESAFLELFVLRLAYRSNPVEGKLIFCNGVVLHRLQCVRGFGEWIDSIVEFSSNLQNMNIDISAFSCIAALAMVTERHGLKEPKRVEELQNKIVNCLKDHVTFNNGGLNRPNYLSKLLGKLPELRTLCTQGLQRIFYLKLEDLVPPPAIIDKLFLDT
# Test: Hybrid Gal4-Nurr1 reporter gene assay in HEK293T cells
Compound,Nurr1 agonism max. fold activation,Nurr1 agonism max. fold activation (range),other results
[2H]C([2H])([2H])Oc1cccc(-c2ccc(NC(=O)C3=C(C(=O)O)CCC3)c(F)c2)c1 [2/1],2.61 ± 0.07 fold,,
[2H]c1cc(-c2cccc(OC([2H])([2H])[2H])c2)cc(F)c1NC(=O)C1=C(C(=O)O)CCC1 [2/12],,+++ (+++: ≥3-fold),
[2H]c1cc([2H])c(-c2ccc(NC(=O)C3=C(C(=O)O)CCC3)c(F)c2)c([2H])c1OC([2H])([2H])[2H] [2/3],,+++ (+++: ≥3-fold),
"COc1cccc(-c2ccc(NC(=O)C3=C(C(=O)O)CCC3)c(F)c2)c1 [Example 1, vidofludimus]",3.1 ± 0.4 fold,,
"C#CCOc1cccc(-c2ccc(NC(=O)C3=C(C(=O)O)CCC3)c(F)c2)c1 [Example 3, 2-((3-Fluoro-3′-(prop-2-yn-1-yloxy)-[1,1′-biphenyl]-4-yl)carbamoyl)cyclopent-1-ene-1-carboxylic acid]",,,EC50: 230 ± 30 nM

# — US20260130879A1 (IMMUNIC AG, priority 2023, published 2026)
